# Laboratory results: PubChem BioAssay AID1477 (National Center for Advancing Translational Sciences (NCATS), 2009)
# Protein sequences, listed by entry. Tags and fused reporters are not part of them.
# UniProt Q01196, whole entry partner: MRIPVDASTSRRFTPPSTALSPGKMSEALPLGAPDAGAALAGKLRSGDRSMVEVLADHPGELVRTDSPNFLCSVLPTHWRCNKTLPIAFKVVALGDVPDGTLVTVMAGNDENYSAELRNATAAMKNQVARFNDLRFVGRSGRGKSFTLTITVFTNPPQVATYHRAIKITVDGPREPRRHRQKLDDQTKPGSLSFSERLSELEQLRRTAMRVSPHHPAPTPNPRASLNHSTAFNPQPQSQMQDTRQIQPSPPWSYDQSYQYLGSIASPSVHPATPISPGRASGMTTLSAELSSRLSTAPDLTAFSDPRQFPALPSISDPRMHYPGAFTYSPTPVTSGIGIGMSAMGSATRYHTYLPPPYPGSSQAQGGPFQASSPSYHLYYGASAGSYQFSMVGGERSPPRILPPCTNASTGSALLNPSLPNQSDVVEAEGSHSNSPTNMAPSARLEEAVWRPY
# UniProt Q13951, whole entry: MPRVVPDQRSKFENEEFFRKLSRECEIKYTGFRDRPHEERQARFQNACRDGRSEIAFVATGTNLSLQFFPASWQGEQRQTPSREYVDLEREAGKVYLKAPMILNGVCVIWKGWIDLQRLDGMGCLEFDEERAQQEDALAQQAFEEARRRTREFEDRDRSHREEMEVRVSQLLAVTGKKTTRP
# The list shows a part of the results, in another mix than the full data. Inconclusive results are not listed. Active and inactive are the calls of the source. Calls follow the shape of the dose curve; as a rule, active = well fitted curve in the direction sought with a large enough effect; inconclusive = small, poorly fitted or top-dose-only effect, or effect the other way, or another doubt; inactive = no such curve, though single readings can be large or run the other way.
# Biological target: Runt-related transcription factor 1 (Homo sapiens) + Core-binding factor subunit beta (Homo sapiens) (UniProt Q01196+Q13951)
# Test: qHTS Assay for Compounds Blocking the Interaction Between CBF-beta and RUNX1 for the Treatment of Acute Myeloid Leukemia; also: % of control where 0% means no effect
# Settings: AlphaScreen CBFb-His/RUNX1-biotin binding, biochemical; at 59.8 µM (top of the series) unless noted
row,Compound,"activity, negative = inhibition"
1,O=C(OCCN1CCN(CCOCc2ccccc2)CC1)C(O)(c1ccccc1)c1ccccc1,inactive: 13.7%
2,CC(C)c1ccc(OP(C)(=O)Nc2ccc(SC(F)(F)F)cc2)cc1 (centres undefined),inactive: 5.54%
3,CP(=O)(Nc1ccccc1F)Oc1ccccc1 (centres undefined),inactive: -4.37%
4,CCCCCOc1ccc(NP(C)(=O)Oc2ccc(Cl)cc2Cl)cc1 (centres undefined),inactive: 7.19%
5,CP(=O)(Nc1ccccc1)Oc1ccc(F)cc1 (centres undefined),inactive: 7.05%
6,CCN(CC)CCCOC(=O)C(O)(c1ccccc1)C1CCCCC1 (centres undefined),inactive: 8.59%
7,COc1ccc(OP(C)(=O)Nc2ccc(SC(F)(F)F)cc2)cc1 (centres undefined),inactive: 13.1%
8,Cc1cccc([N+](=O)[O-])c1[N+](=O)[O-],inactive: 13.1% [at 21.7 µM]
9,CCC(C)(OO)OOC(C)(CC)OO (centres undefined),inactive: 5.46% [at 21.7 µM]
10,Cc1cc(-c2cccc3ccccc23)c(C)cn1.O=[N+]([O-])c1cc([N+](=O)[O-])c(O)c([N+](=O)[O-])c1,inactive: 0.32%
11,Cc1c([N+](=O)[O-])cccc1[N+](=O)[O-],inactive: -7.05% [at 21.7 µM]
12,Cc1ccc([N+](=O)[O-])c([N+](=O)[O-])c1,inactive: 13.7% [at 21.7 µM]
13,O=[N+]([O-])c1ccc(OP2(=O)COCCO2)cc1 (centres undefined),inactive: 5.66%
14,COc1ccc(NP(C)(=O)Oc2ccccc2OC)cc1 (centres undefined),inactive: 1.03%
15,CN(C)CCOC(=O)C(O)(c1ccccc1)C1CCCCC1 (centres undefined),inactive: 5.73%
16,COc1ccc(OP(C)(=O)Nc2cccc(Br)c2)cc1 (centres undefined),inactive: -1.78%
17,Cc1ccccc1NP(C)(=O)Nc1ccccc1C,inactive: 2.16%
18,CP(=O)(Nc1ccc2c(c1)OCCO2)Oc1ccccc1 (centres undefined),inactive: -1.82%
19,CCOP(=O)(CC)OCC,inactive: 11% [at 21.7 µM]
20,CCOP(C)(=S)SCC(=O)NC(C)(CC)C(=O)O (centres undefined),inactive: 4.03%
21,CP(=O)(Nc1ccc(SC(F)(F)F)cc1)Oc1ccc(F)cc1 (centres undefined),inactive: 10.8%
22,CN(C)C(=O)c1c([N+](=O)[O-])cc([N+](=O)[O-])cc1[N+](=O)[O-],inactive: -0.047%
23,CP(=O)(Nc1ccc(Cl)cc1)Oc1ccc(F)cc1 (centres undefined),inactive: 3.6%

row,Compound,"activity, negative = inhibition"
1,COc1ccccc1OP(C)(=O)Nc1ccccc1Br (centres undefined),inactive: 1.56%
2,CC(C)(C)c1ccc(OP(C)(=O)O)cc1,inactive: -4.69%
3,CCc1ccc(OP(C)(=O)Nc2cccnc2)cc1 (centres undefined),inactive: -2.16%
4,CP(=O)(Oc1ccccc1)N1CCOC1=O (centres undefined),inactive: 0.175%
5,O=C(OCCCN1CCCC1)C(O)(c1ccccc1)C1CCCCC1 (centres undefined),inactive: 14%
6,OCCSCCO,inactive: 13.1%
7,COc1ccccc1OP(C)(=O)Nc1c(C)n(C)n(-c2ccccc2)c1=O (centres undefined),inactive: 2.12%
8,COc1ccc(OP(C)(=O)Nc2ccc(Br)cc2)cc1 (centres undefined),inactive: 6.97%
9,CCN(CC)CC(O)COC(=O)C(O)(c1ccccc1)C1CCCCC1 (centres undefined),inactive: 3.46%
10,C/C1=C2N=C(/C=C3N=C(/C(C)=C4\[N-][C@@](C)([C@H]5N=C1[C@@](C)(CCC(=O)NC[C@H](C)OP(=O)([O-])O[C@@H]1[C@H](O)[C@H](n6cnc7cc(C)c(C)cc76)O[C@@H]1CO)[C@@H]5CC(N)=O)[C@](C)(CC(N)=O)[C@H]4CCC(N)=O)[C@@](C)(CC(N)=O)[C@@H]\3CCC(N)=O)C(C)(C)[C@@H]/2CCC(N)=O.[C-]#N.[Co+3],inactive: -15.7% [at 21.7 µM]
11,CP(=O)(OC12CC3CC(CC(C3)C1)C2)OC12CC3CC(CC(C3)C1)C2,inactive: 2.45%
12,CCOC(=O)c1ccc(NP(C)(=O)Oc2ccc(Cl)cc2)cc1 (centres undefined),inactive: 8.04%
13,CP(=O)(Nc1ccc(Cl)cc1Cl)Oc1ccccc1 (centres undefined),inactive: -19.6%
14,CP(=O)(OCCOc1ccccc1)OCCOc1ccccc1,inactive: 3.47%
15,Cc1nc2ccc3ccccc3c2o1.O=[N+]([O-])c1cc([N+](=O)[O-])c(O)c([N+](=O)[O-])c1,inactive: -1.7%
16,COc1ccc(OP(C)(=O)Nc2ccccc2Br)cc1 (centres undefined),inactive: -0.7%
17,COc1ccccc1OP(C)(=O)Nc1ccc(C)c(C)c1 (centres undefined),inactive: 2.67%
18,Cc1cc(C)cc(OP(C)(=O)Nc2cccc(C(F)(F)F)c2)c1 (centres undefined),inactive: 1.59%
19,CCc1ccc(OP(C)(=O)O)cc1,inactive: -13.1%
20,COc1ccccc1OP(C)(=O)Nc1ccc(C)cc1C (centres undefined),inactive: 1.61%
21,CP(=O)(Nc1ccccn1)Oc1ccccc1 (centres undefined),inactive: 0.909%
22,Cc1c(NP(C)(=O)Oc2ccc(C(C)C)cc2)c(=O)n(-c2ccccc2)n1C (centres undefined),inactive: 2.77%
23,O=[N+]([O-])c1cc([N+](=O)[O-])c(Nc2ccccn2)c([N+](=O)[O-])c1,inactive: -11.1%

row,Compound,"activity, negative = inhibition"
1,CN(C)CCOC(=O)C(O)(c1ccccc1)C1CCCC1 (centres undefined),inactive: 4.11%
2,COc1ccc(OP(C)(=O)Nc2ccccn2)cc1 (centres undefined),inactive: 0.805%
3,COc1ccccc1OP(C)(=O)Nc1ccc(Br)cc1 (centres undefined),inactive: -4.75%
4,CCN(CC)CCCOC(=O)C(O)(c1ccccc1)c1ccccc1,inactive: 13%
5,COc1ccc(OP(C)(=O)Nc2cccc(F)c2)cc1 (centres undefined),inactive: -2.57%
6,COc1ccccc1OP(C)(=O)Nc1cc(Cl)ccc1C (centres undefined),inactive: -3.45%
7,Cc1cc(C)cc(OP(C)(N)=O)c1 (centres undefined),inactive: -17.2%
8,CCOC(=O)c1ccc(NP(C)(=O)Oc2ccccc2)cc1 (centres undefined),inactive: -0.764%
9,Cc1ccc(NP(C)(=O)Oc2ccccc2)c(C)c1 (centres undefined),inactive: 0.541%
10,COc1ccccc1OP(C)(=O)Nc1ccc(C)cc1 (centres undefined),inactive: 1.1%
11,Cc1cccc(C)c1OP(C)(N)=O (centres undefined),inactive: -6.67%
12,O=C(O)C(O)(c1ccccc1)c1ccccc1,inactive: 25.9%
13,CC(C)(C)c1ccc(OP(C)(=O)Nc2ccc(SC(F)(F)F)cc2)cc1 (centres undefined),inactive: 0.86%
14,O=[N+]([O-])c1ccc2c(c1)C=Nc1ccccc1O2,inactive: -10.6%
15,O=C(O)C1(O)c2ccccc2-c2ccccc21,inactive: 16.6%
16,COc1ccccc1OP(C)(=O)Nc1ccccc1 (centres undefined),inactive: -11.6%
17,CP(=O)(Nc1ccccc1Br)Oc1ccccc1 (centres undefined),inactive: -15.8%
18,CP(=S)(Nn1cnnc1)Oc1ccccc1 (centres undefined),inactive: 1.65%
19,CP(=O)(Nc1ccccn1)Oc1ccc(Cl)cc1 (centres undefined),inactive: 5.01%
20,CCOP(C)(=S)SCC(=O)NC(C)C(=O)O (centres undefined),inactive: 5.98%
21,CCOC(=O)c1ccc(NP(C)(=O)Oc2ccc(OC)cc2)cc1 (centres undefined),inactive: 3.59%
22,Cc1cc(C)cc(OP(C)(=O)Nc2ccc(SC(F)(F)F)cc2)c1 (centres undefined),inactive: 2.91%
23,CP(=O)(NC(=O)Nc1ccccc1)Oc1ccccc1 (centres undefined),inactive: -3.13%

row,Compound,"activity, negative = inhibition"
1,CCc1ccc(OP(C)(=O)N2CCN(c3ccc([N+](=O)[O-])cc3)CC2)cc1 (centres undefined),inactive: -9.95%
2,CP(=O)(Oc1ccccc1)OC(c1ccccc1)C(F)(F)F (centres undefined),inactive: -8.25%
3,CP(=O)(Nc1ccc(SC(F)(F)F)cc1)Oc1ccc(Cl)cc1 (centres undefined),inactive: 3.4%
4,Cc1cccc(C)c1OP(C)(=O)Nc1ccc(SC(F)(F)F)cc1 (centres undefined),inactive: 2.03%
5,Cc1nc2ccc3ccccc3c2s1.O=[N+]([O-])c1cc([N+](=O)[O-])c(O)c([N+](=O)[O-])c1,inactive: 4.23%
6,CC(C)N(CCCl)C(C)C,inactive: 2.85%
7,O=[N+]([O-])c1cc([N+](=O)[O-])c(-n2nnc3ccccc32)c([N+](=O)[O-])c1,inactive: 5.32%
8,CCCOc1ccc(NP(C)(=O)Oc2ccc(Cl)cc2)cc1 (centres undefined),inactive: 4.59%
9,CP(=O)(Nc1ccc(SC(F)(F)F)cc1)Oc1ccccc1 (centres undefined),inactive: -0.607%
10,CN1CCCCC1COC(=O)C1(O)c2ccccc2CCc2ccccc21 (centres undefined),inactive: -19.9%
11,COc1ccccc1OP(C)(=O)Nc1c(C)cccc1C (centres undefined),inactive: 3.68%
12,O=[N+]([O-])c1cc([N+](=O)[O-])c(Nc2nnnn2CCO)c([N+](=O)[O-])c1,inactive: -0.509%
13,Cc1ccc([N+](=O)[O-])cc1[N+](=O)[O-],inactive: 7.05% [at 21.7 µM]
14,O=[N+]([O-])c1cccc([N+](=O)[O-])c1,inactive: 1.33% [at 21.7 µM]
15,Cc1cc(C)cc(OP(C)(=O)Nc2ccccn2)c1 (centres undefined),inactive: 4.28%
16,CP(=O)(Nc1cccc(Br)c1)Oc1ccccc1 (centres undefined),inactive: 1.32%
17,Cc1ccc(C)c(NP(C)(=O)Oc2ccccc2)c1 (centres undefined),inactive: 3.6%
18,Cc1cc(C)cc(OP(C)(=O)Nc2ccc(C)cc2C)c1 (centres undefined),inactive: -7.28%
19,CCOC(=O)c1ccc(NP(C)(=O)Oc2cc(C)cc(C)c2)cc1 (centres undefined),inactive: 5.83%
20,COc1ccccc1OP(C)(=O)Nc1cccc(Br)c1 (centres undefined),inactive: 9.25%
